This data set in a line: Solubility, lipophilicity and viscosity of SAIB. The data set is classed as physicochemical. An excerpt: It is fully esterified at a ratio of six isobutyrate groups to two acetate groups. […] SAIB can be prepared by controlled esterification of sucrose (food grade) with acetic and isobutyric anhydrides, in the presence of a catalyst. The produced ester can be purified carrying out a filtration and distillation steps.
It was noticed that, mixing SAIB/IL in Chitin/IL and mixing Chitin/IL in SAIB/IL was slightly different, apparently having the first a better mechanical behavior in the end of the process.

Consider Sucrose acetate isobutyrate [SAIB], for which, for the setting “ionic liquid [bmim][Ac]”, the “dissolution in [bmim][Ac]” value is “able to dissolve in [bmim][Ac]”. Also, the “dissolution in [bmim][Cl]” value (ionic liquid [bmim][Cl]) was “does not dissolve in [bmim][Cl]”.
